Source: ChEMBL document CHEMBL2346654, “Discovery of biological evaluation of pyrazole/imidazole amides as mGlu5 receptor negative allosteric modulators” (Bioorg Med Chem Lett, 2013)
pIC50: −log10 of the molar value.

The chains behind the UniProt entries cited, without tags or fusion partners.
UniProt P41594, whole entry: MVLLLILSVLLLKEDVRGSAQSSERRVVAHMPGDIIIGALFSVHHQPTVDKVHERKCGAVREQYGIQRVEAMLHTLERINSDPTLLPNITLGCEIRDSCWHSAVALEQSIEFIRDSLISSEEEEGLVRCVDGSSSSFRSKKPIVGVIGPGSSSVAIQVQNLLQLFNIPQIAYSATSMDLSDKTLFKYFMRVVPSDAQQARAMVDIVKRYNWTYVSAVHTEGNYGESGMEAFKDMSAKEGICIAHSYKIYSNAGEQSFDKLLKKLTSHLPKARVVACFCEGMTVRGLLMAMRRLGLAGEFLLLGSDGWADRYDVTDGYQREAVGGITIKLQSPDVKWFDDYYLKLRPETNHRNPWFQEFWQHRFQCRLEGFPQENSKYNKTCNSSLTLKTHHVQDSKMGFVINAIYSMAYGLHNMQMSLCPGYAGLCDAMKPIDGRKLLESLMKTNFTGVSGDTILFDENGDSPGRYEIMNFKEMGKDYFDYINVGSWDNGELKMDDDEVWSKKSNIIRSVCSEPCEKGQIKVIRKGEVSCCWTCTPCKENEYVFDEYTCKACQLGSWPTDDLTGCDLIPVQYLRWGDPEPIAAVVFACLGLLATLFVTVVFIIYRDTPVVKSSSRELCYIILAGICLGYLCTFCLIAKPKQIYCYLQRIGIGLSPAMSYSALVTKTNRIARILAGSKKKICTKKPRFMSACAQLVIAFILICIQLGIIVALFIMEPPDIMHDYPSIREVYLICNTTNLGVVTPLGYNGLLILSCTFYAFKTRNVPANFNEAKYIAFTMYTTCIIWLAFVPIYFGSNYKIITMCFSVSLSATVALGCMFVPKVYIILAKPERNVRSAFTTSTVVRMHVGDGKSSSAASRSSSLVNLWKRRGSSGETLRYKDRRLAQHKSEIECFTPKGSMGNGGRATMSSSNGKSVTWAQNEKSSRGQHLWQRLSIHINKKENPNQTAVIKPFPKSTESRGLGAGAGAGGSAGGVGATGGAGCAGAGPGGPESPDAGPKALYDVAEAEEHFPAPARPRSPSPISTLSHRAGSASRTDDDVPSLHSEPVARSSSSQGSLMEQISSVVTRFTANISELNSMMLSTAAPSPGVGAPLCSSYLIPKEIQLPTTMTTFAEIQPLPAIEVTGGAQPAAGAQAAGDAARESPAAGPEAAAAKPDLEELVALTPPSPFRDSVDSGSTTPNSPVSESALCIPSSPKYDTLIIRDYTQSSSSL

Molecular target: Metabotropic glutamate receptor 5 (Homo sapiens, UniProt P41594)
Assay: Negative allosteric modulation of human mGluR5 expressed in HEK293 cells assessed as calcium mobilization by FLIPR assay
Type: functional, cell-based

How did the pIC50 turn out when `Cc1nc(C#Cc2cccnc2)cs1` was run?
Its pIC50 is 7.92.
